Measurements taken from ChEMBL document CHEMBL4052827, “Discovery of Tetrahydroisoquinoline-Containing CXCR4 Antagonists with Improved in Vitro ADMET Properties” (J Med Chem, 2018).

Chains of the proteins cited; added tags and fusions are not shown.
UniProt P61073, whole entry: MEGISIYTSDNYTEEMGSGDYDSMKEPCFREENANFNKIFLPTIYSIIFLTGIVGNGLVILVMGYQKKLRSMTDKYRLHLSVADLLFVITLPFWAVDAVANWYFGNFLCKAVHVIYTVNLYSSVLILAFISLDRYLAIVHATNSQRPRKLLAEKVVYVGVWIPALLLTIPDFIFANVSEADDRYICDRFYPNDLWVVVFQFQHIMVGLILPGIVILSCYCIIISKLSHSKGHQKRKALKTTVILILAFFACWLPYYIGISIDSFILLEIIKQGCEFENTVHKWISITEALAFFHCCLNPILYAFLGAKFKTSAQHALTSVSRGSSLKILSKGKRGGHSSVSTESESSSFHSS

Biological target: C-X-C chemokine receptor type 4 (Homo sapiens, UniProt P61073)
Assay: Agonist activity at CXCR4 in human CCRF-CEM cells assessed as induction of Ca2+ flux measured for 90 secs by calcium dye-based fluorescence assay
Type: functional, cell-based

EC50: > 30 µM
SMILES: C(=C\CN(C[C@H]1Cc2ccccc2CN1)[C@H]1CCCc2cccnc21)/CNCc1ccncc1
